Literature values, collected in patent US20250339412A1, “METHODS OF TREATING SOLID TUMOR USING (19R)-5-CHLORO-3-ETHYL-16-FLUORO-10,19-DIMETHYL-20-OXA-3,4,10,11,23-PENTAAZAPENTACYCLO[19.3.1.02,6.08,12.013,18]PENTACOSA-1(24),2(6),4,8,11,13,15,17,21(25),22-DECAEN-22-AMINE” (Nuvalent, Inc., priority 2022, published 2025).

Test system: ALK-positive NSCLC
Conditions: cited from earlier work

SMILES: C[C@@H](Oc1cc(-c2cnn(C3CCNCC3)c2)cnc1N)c1c(Cl)ccc(F)c1Cl [Crizotinib]
- median progression-free survival: 8-11 months
- overall response rate: 60-80%
